{
  "sequences": {"note": "Protein sequences, listed by entry. Tags and fused reporters are not part of them. Lines headed by an entry give the natural chain unless they say otherwise; changes in a name come on top.", "UniProt P51843": "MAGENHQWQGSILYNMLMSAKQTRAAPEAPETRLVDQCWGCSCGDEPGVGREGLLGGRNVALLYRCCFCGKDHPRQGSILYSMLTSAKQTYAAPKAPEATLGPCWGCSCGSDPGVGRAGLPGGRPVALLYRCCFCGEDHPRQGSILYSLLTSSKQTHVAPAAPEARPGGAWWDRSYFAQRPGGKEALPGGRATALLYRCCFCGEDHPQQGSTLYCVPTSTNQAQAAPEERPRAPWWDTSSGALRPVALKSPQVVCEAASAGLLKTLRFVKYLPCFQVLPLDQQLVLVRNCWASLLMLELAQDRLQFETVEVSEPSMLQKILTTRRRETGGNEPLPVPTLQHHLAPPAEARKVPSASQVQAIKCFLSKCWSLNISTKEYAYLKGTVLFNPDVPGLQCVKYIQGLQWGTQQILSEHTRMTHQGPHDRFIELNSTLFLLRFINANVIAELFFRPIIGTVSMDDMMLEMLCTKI"},
  "source": "PubChem BioAssay AID504766",
  "about": "(The Scripps Research Institute Molecular Screening Center, 2011)",
  "note": "The entries are a selection whose mix differs from that of the whole data set. Activity calls are given as the source filed them.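 How the source made its calls: active means inhibition above the mean over all tested compounds plus 3 SD (cut at about 4.2% in these data); inactive means the rest.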",
  "data": [
    {"target": "Nuclear receptor subfamily 0 group B member 1 (Homo sapiens) (UniProt P51843)", "test": "DAX1 (NR0B1) inhibitors, primary screen, cell-based, HEK293, Gal4-DAX1, luciferase luminescence (AID 504766);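 further: 0% = DAX1-transfected cells with DMSO and 100% = empty-vector control cells with DMSO; inhibition shows as a rise in luminescence from relieved DAX1 repression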", "conditions": "HEK293 Gal4-DAX1 luciferase reporter, at 6.75 µM, stronger effect = higher value", "values": [
      {"smiles": "N#C/C(=C\\c1ccc(N(CCBr)CCBr)cc1)C(N)=O", "inhibition": "inactive: 0.93%"},
      {"smiles": "CC(=O)c1ccc(N2CC2c2ccncc2)cc1", "note": "(stereo unspecified)", "inhibition": "inactive: 0.92%"},
      {"smiles": "COC(=O)C1(C)COP(=O)(NCc2ccccc2)OC1", "note": "(stereo unspecified)", "inhibition": "inactive: -0.46%"},
      {"smiles": "Cc1ccccc1CN(C)C(=O)COC(=O)C(O)(c1ccccc1)c1ccccc1", "inhibition": "inactive: -0.47%"},
      {"smiles": "C[C@@H]1C=CCP(=O)(Oc2ccccc2)O1", "note": "(stereo partly specified)", "inhibition": "inactive: 0.75%"},
      {"smiles": "C[C@H]1OP(=O)(Oc2ccccc2)C[C@@H]2O[C@@H]21", "note": "(stereo partly specified)", "inhibition": "inactive: -0.2%"},
      {"smiles": "CC(=O)Nc1ccc([As](=O)(O)O)c(O)c1", "inhibition": "inactive: 2.85%"},
      {"smiles": "CC(=O)Nc1ccc(Oc2c([N+](=O)[O-])cc([N+](=O)[O-])cc2[N+](=O)[O-])cc1", "inhibition": "inactive: 1.06%"},
      {"smiles": "O=P1(Nc2nc3ccc(Cl)cc3s2)COc2ccccc2O1", "note": "(stereo unspecified)", "inhibition": "inactive: 0.75%"},
      {"smiles": "CCOc1ccc(C2=NCC(CBr)S2)cc1", "note": "(stereo unspecified)", "inhibition": "inactive: -0.05%"},
      {"smiles": "CCc1cc(O)c([N+](=O)[O-])c(C)c1[N+](=O)[O-]", "inhibition": "inactive: 0.78%"},
      {"smiles": "CC(C)(C)C(=O)NC(Sc1ccccc1)C(Cl)(Cl)Cl", "note": "(stereo unspecified)", "inhibition": "inactive: -3.08%"},
      {"smiles": "COC(=O)c1cc2c(s1)N=C(c1ccccc1)N(C)P2(=O)N1CCOCC1", "note": "(stereo unspecified)", "inhibition": "inactive: 0.27%"},
      {"smiles": "Cc1ccc(OP(=O)(Nc2ccccn2)Oc2ccc(C)cc2)cc1", "inhibition": "inactive: -0.9%"},
      {"smiles": "CC(=O)NC(SC(=S)N(CC(C)C)CC(C)C)C(Cl)(Cl)Cl", "note": "(stereo unspecified)", "inhibition": "inactive: 0.31%"},
      {"smiles": "O=C(OC1CN2CCC1CC2)c1ccccc1", "note": "(stereo unspecified)", "inhibition": "inactive: 1.58%"},
      {"smiles": "CCC(=O)N1C2C3N(C(=O)CC)C1C1N(C(=O)CC)C(C(N1C(=O)CC)N3C(=O)CC)N2C(=O)CC", "inhibition": "inactive: -0.48%"},
      {"smiles": "Cc1ccccc1OP(=O)(Nc1ccccn1)Oc1ccccc1C", "inhibition": "inactive: -0.68%"},
      {"smiles": "CC(NC(=O)COC(=O)C(O)(c1ccccc1)c1ccccc1)c1ccccc1", "note": "(stereo unspecified)", "inhibition": "inactive: 0.42%"},
      {"smiles": "CN(C)C(=O)Oc1noc2ccccc12", "inhibition": "inactive: -1.13%"},
      {"smiles": "O=c1c2cc([N+](=O)[O-])ccc2[nH]c2c([N+](=O)[O-])cc([N+](=O)[O-])cc12", "inhibition": "inactive: -4.88%"},
      {"smiles": "O=C(NC1CCS(=O)(=O)C1)NP(=S)(Oc1ccccc1)Oc1ccccc1", "note": "(stereo unspecified)", "inhibition": "inactive: 1.17%"},
      {"smiles": "CCNC(=S)/N=C(\\N)N[N+](=O)[O-]", "inhibition": "inactive: 0.33%"},
      {"smiles": "O=P1(N(CCCl)CCCl)OCCC2CCCCN21", "note": "(stereo unspecified)", "inhibition": "inactive: -1.63%"},
      {"smiles": "O=[N+]([O-])c1ncn(CCn2cnc([N+](=O)[O-])n2)n1", "inhibition": "inactive: 1.81%"},
      {"smiles": "CC(=O)NC(SC(=S)N(C)C)C(Cl)(Cl)Cl", "note": "(stereo unspecified)", "inhibition": "inactive: -0.04%"},
      {"smiles": "O=[N+]([O-])c1ccc(O)c(/C=N/Nc2ccc([N+](=O)[O-])cc2[N+](=O)[O-])c1", "inhibition": "inactive: 0.23%"},
      {"smiles": "O=[As](O)(c1ccccc1)c1ccc(O)cc1", "inhibition": "inactive: 0.56%"},
      {"smiles": "Nc1ccc([As](=O)(O)c2ccc([N+](=O)[O-])cc2)cc1", "inhibition": "inactive: 2.47%"},
      {"smiles": "C(Cc1nn[nH]n1)Cc1nn[nH]n1", "inhibition": "inactive: -0.24%"},
      {"smiles": "O=C(OC1CN2CCC1CC2)c1cccc(Cl)c1", "note": "(stereo unspecified)", "inhibition": "inactive: 1.93%"},
      {"smiles": "COc1ccc(N)c([N+](=O)[O-])c1[N+](=O)[O-]", "inhibition": "inactive: -0.29%"},
      {"smiles": "CN(C)C1(CNC(=O)c2ccc(Cl)c(S(N)(=O)=O)c2)CCCCC1", "inhibition": "inactive: 1.76%"},
      {"smiles": "O=P(Nc1ccccn1)(c1ccc(Br)cc1)c1ccc(Br)cc1", "inhibition": "inactive: -0.08%"},
      {"smiles": "O=P(Nc1nc2ccccc2s1)(c1ccccc1)c1ccccc1", "inhibition": "inactive: -1.08%"},
      {"smiles": "C[C@H]1OP(=O)(Oc2ccccc2)[C@H](O)[C@H](O)[C@H]1N=[N+]=[N-]", "note": "(stereo partly specified)", "inhibition": "inactive: -1.13%"},
      {"smiles": "O=P(Nc1nccs1)(c1ccccc1)c1ccccc1", "inhibition": "inactive: 1.18%"},
      {"smiles": "CC(C)C(=O)NC(Sc1ccccc1)C(Cl)(Cl)Cl", "note": "(stereo unspecified)", "inhibition": "inactive: 1.27%"},
      {"smiles": "c1nnnn1CCn1cnnn1", "inhibition": "inactive: 0.57%"},
      {"smiles": "Nc1ccc([As](=O)(O)c2ccc(N)cc2)cc1", "inhibition": "inactive: 1.8%"},
      {"smiles": "C[N+]1=C2C=CC=CC=C2SC12C([N+](=O)[O-])=CC([N+](=O)[O-])=C[C-]2[N+](=O)[O-]", "note": "(stereo unspecified)", "inhibition": "inactive: -7.88%"},
      {"smiles": "CCN(/C(=N/P(=O)(N1CCOCC1)N1CCOCC1)N1CCOCC1)c1ccc(OC)cc1", "inhibition": "inactive: 3%"},
      {"smiles": "CC(C)=N/N=C(\\N)N[N+](=O)[O-]", "inhibition": "inactive: -0.43%"},
      {"smiles": "CC(C)c1nc(Nc2ccccc2)n(P(=O)(N(C)C)N(C)C)n1", "inhibition": "inactive: 0.3%"},
      {"smiles": "CN(C)C(=O)OCCc1n(C)cc[n+]1C", "inhibition": "inactive: -0.36%"},
      {"smiles": "c1cc(-c2nn[nH]n2)ccc1-c1nn[nH]n1", "inhibition": "inactive: 1.27%"},
      {"smiles": "CC1CCN(C(=O)Oc2c(Cl)cc(Cl)c3cccnc23)CC1", "inhibition": "inactive: -0.69%"},
      {"smiles": "COc1ccc(C2=NCC(CBr)S2)cc1", "note": "(stereo unspecified)", "inhibition": "inactive: -0.05%"},
      {"smiles": "CC(=O)N1C2C3N(C(C)=O)C1C1N(C(C)=O)C(C(N1C(C)=O)N3C(C)=O)N2C(C)=O", "inhibition": "inactive: 0.62%"},
      {"smiles": "O=[N+]([O-])c1cccc2n[nH]nc12", "inhibition": "inactive: 2.45%"},
      {"smiles": "Cc1ccc(NP(=O)(Oc2ccccc2)Oc2ccccc2)nc1", "inhibition": "inactive: -0.51%"}
    ]}
  ]
}
